Source: US20080064705A1, “Theophylline-based nitophenylpiperazine derivatives for enhancing aortic smooth muscle relaxation” (KAOHSIUNG MEDICAL UNIVERSITY, priority 2006, published 2008)

Sequences of proteins named here, by UniProt entry; tags and fusion partners are left off. A change or cut given only in a name is not applied to a line headed by its entry.
UniProt Q14432: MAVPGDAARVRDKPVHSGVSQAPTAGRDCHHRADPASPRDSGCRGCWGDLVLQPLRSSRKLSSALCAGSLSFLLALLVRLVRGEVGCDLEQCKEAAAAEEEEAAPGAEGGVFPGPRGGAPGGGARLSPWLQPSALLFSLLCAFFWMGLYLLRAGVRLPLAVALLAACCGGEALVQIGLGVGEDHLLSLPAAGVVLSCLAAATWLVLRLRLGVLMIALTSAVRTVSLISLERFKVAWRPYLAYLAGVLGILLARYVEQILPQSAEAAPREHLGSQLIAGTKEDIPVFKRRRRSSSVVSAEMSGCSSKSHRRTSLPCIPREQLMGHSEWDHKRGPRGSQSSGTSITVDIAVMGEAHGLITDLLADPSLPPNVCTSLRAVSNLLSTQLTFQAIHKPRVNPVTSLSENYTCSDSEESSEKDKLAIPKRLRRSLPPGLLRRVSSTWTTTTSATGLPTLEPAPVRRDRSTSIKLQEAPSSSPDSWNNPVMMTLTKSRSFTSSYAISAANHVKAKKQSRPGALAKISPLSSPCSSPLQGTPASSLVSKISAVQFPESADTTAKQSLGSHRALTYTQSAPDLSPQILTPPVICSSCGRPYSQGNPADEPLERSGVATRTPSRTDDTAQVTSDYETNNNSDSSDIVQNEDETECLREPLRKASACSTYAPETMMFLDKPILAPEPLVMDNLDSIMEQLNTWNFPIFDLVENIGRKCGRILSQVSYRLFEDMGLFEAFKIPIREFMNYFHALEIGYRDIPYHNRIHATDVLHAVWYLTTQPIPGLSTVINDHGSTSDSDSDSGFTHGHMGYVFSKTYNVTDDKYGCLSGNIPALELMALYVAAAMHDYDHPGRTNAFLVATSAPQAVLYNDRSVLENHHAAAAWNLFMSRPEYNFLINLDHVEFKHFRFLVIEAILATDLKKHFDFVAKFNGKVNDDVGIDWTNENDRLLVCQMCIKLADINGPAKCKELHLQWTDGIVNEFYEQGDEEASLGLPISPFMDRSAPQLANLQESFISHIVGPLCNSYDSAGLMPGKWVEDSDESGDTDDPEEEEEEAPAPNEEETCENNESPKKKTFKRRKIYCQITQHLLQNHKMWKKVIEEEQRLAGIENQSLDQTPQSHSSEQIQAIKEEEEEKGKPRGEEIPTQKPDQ

Molecular target: PDE3 (Homo sapiens, UniProt Q14432)
Test: biochemical
Conditions: read-out: enzyme inhibitory activity for PDE3
Method: PDE activities were determined by the method of Hidaka and Asano (Hidaka H, Asano T., Biochim Biophys Acta., 429, 485-497, 1976). Washed human platelets were used for both PDE3 and PDE5 analyses, and human U937 cells for PDE4. Purified protein containing PDE3, PDE4, or PDE5 enzyme was resuspended in 50 mM Tris-HCl containing 5 mM MgCl2 (pH 7.5). […] After 20 minutes at 37° C., the samples were heated to 100° C. for 2 minutes. Ophiophagis Hannah snake venom (10 mg/mL, […]) was then added and incubated at 37° C. for 10 minutes to convert the 5′-GMP and 5′-AMP to the uncharged nucleosides guanosine and adenosine, respectively. An ion-exchange resin ([…]) was added to bind all unconverted cGMP or cAMP. After centrifuging, the supernatant was removed for determination of radiolabeled guanosine or adenosine by a liquid scintillation counter.

For `Cn1c(=O)c2[nH]cnc2n(C)c1=O` [theophylline], the inhibition at 10000 µM was 8 ± 1%.
